{
  "source": "patent US20250352554A1",
  "about": "(Neurelis, Inc., priority 2024, published 2025)",
  "key": {"[1]": {"details": "cited from earlier work"}},
  "note": "Where two headings read alike, the source gives them in different places.",
  "data": [
    {"smiles": "Cc1cc2c(s1)Nc1ccccc1N=C2N1CCN(C)CC1", "note": "[olanzapine, 2-methyl-4-(4-methyl-1-piperazinyl)-10H-thieno[2,3-b][1,5]benzodiazepine]", "values": [
      {"measurement": "Cmax", "setting": "[1]; 5 mg oral dose", "result": 7, "unit": "ng/mL"},
      {"measurement": "Cmax", "setting": "[1]; 10 mg oral dose", "result": 14, "unit": "ng/mL"},
      {"measurement": "compatibility with individual solvents (degradation products, color changes)", "setting": "Vitamin E, benzyl alcohol, ethanol, two weeks at 40° C.", "result": "significant incompatibilities"},
      {"measurement": "USP Related Compounds B and C", "setting": "approximately 5 mg/mL in dimethylacetamide or PEG 400, two months at 40° C.", "result": "did not significantly increase"}
    ]}
  ]
}
